Here are results for one molecule from paper PMC11316256.

The target in test [1] is Human IgG1κ (human). The test can be described thus: SPR; Biacore S200; IgG subclasses amine-coupled to a CM5 chip; sCD177 125-16,000 nM injected in 1×HBS-P+ at 30 µl/min; multicycle kinetics, global fit, 1:1 Langmuir model; KD = koff/kon. For orientation: Surface plasmon resonance follows binding to a sensor surface in real time, without labels.
Test [2] concerns the target Human IgG4κ (human). The description is as above.
In test [3] the target is Human IgG2κ (human). The description is as above.
Test [4] concerns the target Human IgG3κ (human). The description is as above.
The target in test [5] is Human IgG1κ (human). The test can be described thus: SPR; Biacore S200; IgG subclasses amine-coupled to a CM5 chip; sCD177 125-16,000 nM in 1×HBS-P+; KD from the concentration-dependence of the steady-state signal.
The target of test [6] is Human IgG4κ (human). Described as above.
In test [7] the target is Human IgG2κ (human). Described as above.
Test [8] deals with Human IgG3κ (human). Described as above.
In test [9] the target is Human IgG4κ (human). Description: SPR; Biacore S200; IgG subclasses amine-coupled to a CM5 chip; sCD177 125-16,000 nM injected in 1×HBS-P+ at 30 µl/min; multicycle kinetics, global fit, 1:1 Langmuir model; KD = koff/kon. This is another data set of the same source.

By Kd is commonly meant a measure of binding affinity in units of concentration. As a reminder, the koff is the first-order rate constant of dissociation. As usually defined, the kon is the rate constant with which the complex forms.

B1: soluble CD177 (sCD177), extracellular domain residues 1-408 (domain or fragment)
chain: LLCQFGTVQHVWKVSDLPRQWTPKNTSCDSGLGCQDTLMLIESGPQVSLVLSKGCTEAKDQEPRVTEHRMGPGLSLISYTFVCRQEDFCNNLVNSLPLWAPQPPADPGSLRCPVCLSMEGCLEGTTEEICPKGTTHCYDGLLRLRGGGIFSNLRVQGCMPQPGCNLLNGTQEIGPVGMTENCNRKDFLTCHRGTTIMTHGNLAQEPTDWTTSNTEMCEVGQVCQETLLLLDVGLTSTLVGTKGCSTVGAQNSQKTTIHSAPPGVLVASYTHFCSSDLCNSASSSSVLLNSLPPQAAPVPGDRQCPTCVQPLGTCSSGSPRMTCPRGATHCYDGYIHLSGGGLSTKMSIQGCVAQPSSFLLNHTRQIGIFSAREKRDVQPPASQHEGG
For B1, the Kd worked out at 1.77 µM with Human IgG1κ (human) [1]; 1.2 µM in the test with Human IgG4κ (human) [2]; 2.8 µM in the test with Human IgG2κ (human) [3]; 1.61 µM in the test with Human IgG3κ (human) [4]; 29.7 µM with Human IgG1κ (human) [5]; 41.2 µM with Human IgG4κ (human) [6]. The results for the Kd with Human IgG2κ (human) [7], with Human IgG3κ (human) [8] and with Human IgG4κ (human) [9] were 30.3 µM, 40.7 µM and 1.97 µM, respectively. Besides, the koff is 0.00539 s⁻¹ with Human IgG1κ (human) [1], 0.00401 s⁻¹ with Human IgG4κ (human) [2], 0.00937 s⁻¹ in the test with Human IgG2κ (human) [3] and 0.00494 s⁻¹ in the test with Human IgG3κ (human) [4]. Also, the kon in the test with Human IgG1κ (human) [1] is 3040 M⁻¹ s⁻¹; in the test with Human IgG4κ (human) [2] it was 3350 M⁻¹ s⁻¹; in the test with Human IgG2κ (human) [3] it was 3350 M⁻¹ s⁻¹; with Human IgG3κ (human) [4] it was 3070 M⁻¹ s⁻¹.
